scFv variants of Ab-95 (light chain) against a SARS-CoV-2 spike peptide

Antigen: PDVDLGDISGINAS, a 14-residue peptide of the SARS-CoV-2 spike HR2 region.

The variants keep the heavy chain, the linker and the frameworks of Ab-95 (scFv order VH, the linker GGGGSGGGGSGGGGS, VL).
VH: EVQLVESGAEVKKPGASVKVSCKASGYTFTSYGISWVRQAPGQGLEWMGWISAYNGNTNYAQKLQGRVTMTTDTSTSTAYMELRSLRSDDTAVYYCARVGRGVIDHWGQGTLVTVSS
VL: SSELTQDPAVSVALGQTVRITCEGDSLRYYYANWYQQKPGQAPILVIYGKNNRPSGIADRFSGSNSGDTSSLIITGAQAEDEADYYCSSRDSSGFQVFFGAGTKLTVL

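Phage display of a naive human antibody library on the peptide gave the parent. In library AAYL52, one, two or three CDR residues were substituted; doubles and triples were drawn at random. AlphaSeq pools MATa yeast showing the antibodies with MATalpha yeast showing the peptide. After mating in shaken culture at 30 °C for 16 h, diploids were selected and their barcode pairs sequenced. The ratio of observed to expected reads was calibrated, replicate by replicate, on BCL2-family standards whose Kd was known from biolayer interferometry. The assay was run in three technical replicates.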

Variants are written as CDR1, CDR2 and CDR3 of the light chain (limits as in the source). Parent: EGDSLRYYYAN, GKNNRPS, SSRDSSGFQVF. The read-out is the apparent dissociation constant on a log10 scale (nM): the lower, the stronger. The mean shown is taken over the replicates in which the pair was detected. Where no diploid with the target was found in any replicate, the entry reads "not detected": below detection, most likely a poor binder, though not proof of it. Three control strains display no target. For library AAYL52, 28% of the pairings with them gave a signal, with a median of 3.91 and one signal in twenty below 2.90, so weak values seen in few replicates may be background.

| # | CDR-L1 | CDR-L2 | CDR-L3 | mean log10 Kd (nM) | detected |
|---|---|---|---|---|---|
| 1 | EGDSLRYYYAN | GKNNRPS | SVRDSSGMQSF | 2.61 | 3/3 |
| 2 | EGDSLRYYYNN | GKNNRPS | SSRDTSGFQVV | 2.35 | 3/3 |
| 3 | EVDSLRYYYAN | HKNNRPS | SSRDTSGFQVF | 5.20 | 1/3 |
| 4 | EGDSLRYYYAN | GKNNRTS | HSRDSSGFQVF | 3.41 | 3/3 |
| 5 | EGDSLRCYYAN | GKNNRES | HSRDSSGFQVF | not detected | 0/3 |
| 6 | EGDSHRYYYAN | GKNNRPS | SSRDSSGFDVF | 4.29 | 2/3 |
| 7 | EGDSERTYYAS | GKNNRPS | SSRDSSGFQVF | 3.68 | 1/3 |
| 8 | EGDSARYYYAN | GKNNRPS | SWRDSSGFQGF | 3.96 | 2/3 |
| 9 | EGDSLRLYYAK | GKQNRPS | SSRDSSGFQVF | not detected | 0/3 |
| 10 | EGFSWRYYYAN | GKNNRPG | SSRDSSGFQVF | 3.80 | 3/3 |
| 11 | EGDSLRYYYAN | GKNNRPS | STTDSSGFQRF | not detected | 0/3 |
| 12 | EGDSLRYYYAR | GKWNRPA | SSRDSSGFQVF | 3.70 | 1/3 |
| 13 | EGDSLRYYYAN | GSNNRPS | CSRTSSGFQVF | 2.70 | 3/3 |
| 14 | EGDSDRYLYAN | GKNNRPS | SSRDSSGFQVF | 3.26 | 3/3 |
| 15 | YGDSLRYYYAN | GKNNRPS | SSRDGIGFQVF | 2.62 | 3/3 |
| 16 | CGDSRRYYYAN | GKNNNPS | SSRDSSGFQVF | 3.52 | 1/3 |
| 17 | EGISLRYYYAN | GKHNRPA | SSRDSSGFQVF | 3.42 | 3/3 |
| 18 | EGDSLVYYYAN | GKNNRPS | SSRDSSGFFWF | 2.89 | 3/3 |
| 19 | EGDSLRYHYAN | GKNNRPS | SLRDSSFFQVF | 2.78 | 3/3 |
| 20 | EYDSLRYYYWN | GKNNRPS | SARDSSGFQVF | 5.13 | 1/3 |
| 21 | EGDSLRYYYAN | GKNNSPA | SSRHSSGFQVF | 3.16 | 3/3 |
| 22 | PGDSLRYSYAN | GKNNRPS | LSRDSSGFQVF | 5.18 | 2/3 |
| 23 | EGSSLRYYYAN | GKNNRLS | SSRDSSGFQVF | 3.13 | 3/3 |
| 24 | EQDSLRYYYAM | GTNNRPS | SSRDSSGFQVF | 3.29 | 3/3 |
| 25 | EADSSRYYYAN | GKNNRPS | SSRDSSGFHVF | 3.38 | 3/3 |
| 26 | EGDSLRYYYAN | GSNNRPS | SVRDGSGFQVF | 3.12 | 3/3 |

The remaining entries, values ahead:

| # | mean log10 Kd (nM) | detected | CDR-L1 | CDR-L2 | CDR-L3 |
|---|---|---|---|---|---|
| 27 | not detected | 0/3 | EGQSLRYYYAN | GKNQRPS | SSRDSSGFEVF |
| 28 | 3.01 | 3/3 | EADSLRNYYAN | GKNNRPS | SSRDSSYFQVF |
| 29 | 4.64 | 2/3 | MGDSLRYYYAN | GKNNRGS | SDRDSSGFQVF |
| 30 | 1.87 | 3/3 | EGTSDRYYYSN | GKNNRPS | SSRDSSGFQVF |
| 31 | 4.31 | 1/3 | EFDCLRYYYAN | GKNNRPS | SRRDSSGFQVF |
| 32 | 4.08 | 2/3 | EGISLRYYLAN | GKNNRPS | SMRDSSGFQVF |
| 33 | 3.62 | 1/3 | EGDSLRYYYAN | GKNVRPE | SSRRSSGFQVF |
| 34 | 4.15 | 2/3 | EGDSLFYYYAA | GKNNEPS | SSRDSSGFQVF |
| 35 | 4.14 | 1/3 | EGDSLREYYAN | GKRNRPS | SSLDSSGFQVF |
| 36 | 3.05 | 3/3 | EGDSLRYYSAN | TRNNRPS | SSRDSSGFQVF |
| 37 | 2.47 | 3/3 | EGDSLRYKGAN | GKNNRPS | SSRDSEGFQVF |
| 38 | 4.13 | 3/3 | EGDSLRYYYAN | GLNNRVS | SSRDSSGFNVF |
| 39 | not detected | 0/3 | EGDSLRYYYAN | QKNNRPS | SSRDSTGFQVN |
| 40 | 2.78 | 3/3 | ETDSLREFYAN | GKNNRPS | SSRDSSGFQVF |
| 41 | 4.04 | 2/3 | EGDQLRYYYAN | GKNNRPS | SSRMRSGFQVF |
| 42 | 3.84 | 3/3 | EGDTLEYYYAN | GKNNRPS | SSRDSSGFVVF |
| 43 | 2.55 | 3/3 | EGDSLRYYYAN | GKNNRPS | SSRYSSGAQVF |
| 44 | 2.89 | 3/3 | EGDSLKYYYTN | GKNNRPS | SSRDSSCFQVF |
| 45 | 4.32 | 2/3 | EGVTLRYYYAN | GKNNRPS | SSFDSSGFQVF |
| 46 | not detected | 0/3 | EGDSLRYYYAN | GKNNRYS | PSRESSGFQVF |
| 47 | 3.04 | 3/3 | EGDSLRYYYAN | GKNNRPI | SSRSSSGFQVR |
| 48 | 4.46 | 3/3 | ETDTLRYYYAN | GKNNRPS | SSRMSSGFQVF |
| 49 | 3.93 | 1/3 | EGDSLRYYYAN | GKNNRPS | CSRDSSGWQVF |
| 50 | 4.31 | 2/3 | EGDSLRYYYAN | GKNNYPS | SSRDSSGFPVF |
| 51 | 2.67 | 3/3 | EGDGLRYYYAN | GKNGRPS | SSRDSSGFQCF |
| 52 | 2.42 | 3/3 | EGDSLRYYTAN | GKSNRGS | SSRDSSGFQVF |

Picked from the list: the 7 lowest averages where every replicate gave a value.

| CDR-L1 | CDR-L2 | CDR-L3 | mean log10 Kd (nM) | detected |
|---|---|---|---|---|
| EGTSDRYYYSN | GKNNRPS | SSRDSSGFQVF | 1.87 | 3/3 |
| EGDSLRYYYNN | GKNNRPS | SSRDTSGFQVV | 2.35 | 3/3 |
| EGDSLRYYTAN | GKSNRGS | SSRDSSGFQVF | 2.42 | 3/3 |
| EGDSLRYKGAN | GKNNRPS | SSRDSEGFQVF | 2.47 | 3/3 |
| EGDSLRYYYAN | GKNNRPS | SSRYSSGAQVF | 2.55 | 3/3 |
| EGDSLRYYYAN | GKNNRPS | SVRDSSGMQSF | 2.61 | 3/3 |
| YGDSLRYYYAN | GKNNRPS | SSRDGIGFQVF | 2.62 | 3/3 |

Source: Engelhart et al. 2022 (doi:10.1038/s41597-022-01779-4), MIT Lincoln Laboratory and A-Alpha Bio; data file from the FLAb repository.